Data taken from PMC3085958 (Journal of medicinal chemistry, 2011).

By UniProt entry, the sequences of proteins in these tests, tags left out.
UniProt P08908, whole entry, species assumed: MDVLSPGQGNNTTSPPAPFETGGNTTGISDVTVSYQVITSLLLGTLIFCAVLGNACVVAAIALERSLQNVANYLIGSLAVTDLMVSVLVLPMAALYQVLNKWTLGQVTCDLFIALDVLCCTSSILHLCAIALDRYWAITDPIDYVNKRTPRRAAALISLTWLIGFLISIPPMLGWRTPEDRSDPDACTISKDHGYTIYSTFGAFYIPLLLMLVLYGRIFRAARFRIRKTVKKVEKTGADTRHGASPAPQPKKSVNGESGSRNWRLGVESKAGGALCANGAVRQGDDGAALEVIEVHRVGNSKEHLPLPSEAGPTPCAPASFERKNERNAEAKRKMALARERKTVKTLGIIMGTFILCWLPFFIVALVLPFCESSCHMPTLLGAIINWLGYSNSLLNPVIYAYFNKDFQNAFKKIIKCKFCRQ

Molecular target: 5-HT1A (Homo sapiens, UniProt P08908)
Experiment: biochemical

Work on `COc1ccc(-c2c(C)c(C(=O)NC3(C#N)CCCCC3)nn2-c2ccccc2Br)cc1` yielded a Ki of 1130 nM.
